# Laboratory results reported in patent publication US20140113958A1, “HCV Combination Therapy” (priority 2011, published 2014).
# Key:
# [1] = tested on: HCV genotype Ib replicon (I389luc-ubi-neo/NS3-3′/ET) in Huh-luc/neo-ET cells; format: cell-based
# Huh-luc/neo-ET cells = experiment: Cellular toxicity by XTT dye reduction in Huh-luc/neo-ET cells; conditions: second drug in combination with miravirsen (SPC3649); 95% confidence interval; median or individual values
substance,measurement,setting,value
Interferon alpha-2b: Interferon-a2b purchased from R&D Systems,"Efficacy, Synergy vol",[1],10.75/−38.2; μM^2% and 10.33/0 μM^2%
same,"Efficacy, Antagonism vol","[1]; second drug in combination with miravirsen (SPC3649), 95% confidence interval, median (≧3 experiments) or individual values",10.75/−38.2; μM^2% and 10.33/0 μM^2%
same,Interaction,"[1]; second drug in combination with miravirsen (SPC3649), overall",Positive
same,"Cytotoxicity, Antagonism vol",Huh-luc/neo-ET cells,0 μM^2% and −8.9 μM^2%
same,"Cytotoxicity, Synergy vol",Huh-luc/neo-ET cells,0 μM^2%

# Several values for one entry are separate records, joined by “and”; a condition that tells them apart may be missing. Equal entries are not always repeated.
